US5441883A, “A3 adenosine receptor, DNA, and uses” (priority 1993, dated 1995)

By UniProt entry, the sequences of proteins in these tests, tags left out.
UniProt P28647, whole entry: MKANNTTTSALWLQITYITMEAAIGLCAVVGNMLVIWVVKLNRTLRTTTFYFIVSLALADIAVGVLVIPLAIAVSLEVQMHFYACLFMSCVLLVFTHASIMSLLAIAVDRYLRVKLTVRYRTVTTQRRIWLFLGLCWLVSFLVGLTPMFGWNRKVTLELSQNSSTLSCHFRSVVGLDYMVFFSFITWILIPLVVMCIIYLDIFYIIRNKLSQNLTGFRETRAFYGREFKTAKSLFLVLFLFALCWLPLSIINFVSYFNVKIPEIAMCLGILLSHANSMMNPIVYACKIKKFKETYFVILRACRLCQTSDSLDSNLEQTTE

Tests used:
A3 adenosine receptor [1] = biological target: T1, A3 adenosine receptor (Rattus norvegicus, UniProt P28647); type: cell-based
Description: The concentrations of adenosine agonists used are 100 nM and the concentration of forskolin is 1 μM. Values are obtained from triplicate plates and shown as mean ±S.E.
The cell were not or pretreated with 100 ng/ml pertussis toxin for 18 hours. The concentration of forskolin and adenosine agonists used are as in FIG. 5.
It is known that the A 1 adenosine receptor inhibits adenylate cyclase activity and the A2 adenosine receptor stimulates adenylate cyclase respectively (Stiles, ibid.; Williams, ibid.).
Cells were grown to about 80% confluence in 150 mm dishes, washed twice with Ca^++ and Mg^++ -free PBS buffer and detached from plates with PBS buffer containing 0.02% EDTA. Cells were collected by centrifugation at 800 rpm (xx g) for 10 min at 4° C. and resuspended in an appropriate volume of KRH buffer [140 mM NaCl, 5 mM KCl , 2 mM CaCl2, 1.2 mM MgSO4, 1.2 mM KH2 PO4, 6 mM glucose, 25 mM Hepes-NaOH (pH 7.4)]. The cells were washed once with KRH buffer and resuspended in KRH buffer at a concentration of 10^7 cells/ml. Each of 100 μl aliquots of this cell suspension were added to a glass tube containing 100 μl KRH+200 μM Ro 20-1724 and incubated at 37° C. for 10 min. Prewarmed 200 μl KRH containing 200 μm Ro 20-1724 and test drugs were then added to the cells and mixed. After incubation at 37° C. for 20 min, 400 μl 10.5 mM NaAc (pH 6.2) were added and the glass tubes transferred to a boiling water bath. The incubated cell suspension were boiled for 20 min, and the tubes were then cooled to room temperature and centrifuged at 3000 rpm (xx g) for 15 min.
For experiments using pertussis toxin pretreatment, aseptic pertussis toxin (Sigma Chemical Co., St. Louis, Mo.) was dissolved in sterile water and added to the medium to a final concentration of 100 ng/ml. Toxin treatment was maintained for approximately 18 hours. The dishes were rinsed once with media immediately prior to the addition of adenosine receptor ligands and processed as described above.

A3 adenosine receptor [2] = biological target: T1, A3 adenosine receptor; type: binding; conditions: rank order
Description: FIGS. 4A and 4B illustrates competitive binding assays using stably transfected CHO cell membrane preparations.
Cell membranes were prepared as follows. COS-7 cells (transient expressors) were harvested 48 hrs after transfection, whereas CHO cells (stable expressors) were grown to confluence in 150 mm plates. Cells were washed twice with ice-cold HOB buffer [15 mM Tris-HCl (pH 7.4), 5 mM MgCl2, 1 mM EDTA] and scraped off plates with a rubber policeman. Cells were then collected by centrifugation at 1,200 rpm (xx g), resuspended in HOB buffer, transferred to a Dounce homogenizer on ice, and homogenized for 20 sec with a CorTarge homogenizer (Eberbach Inc., Ann Arbor, Mich.) at the #3 speed setting. The homogenate was then centrifuged at 2,000 rpm (xx g) for 10 min at 4° C. […] The protein concentration was measured according to the method of Lowry et al. (1954, J. Biol. Chem. 207: 1-XXX) using bovine serum albumin as a standard.
Radioligand binding assays were carried out in duplicate in 500 μl of a solution containing (at final concentrations) 50 mM Tris-HCl (pH 7.4), 5 mM MgCl2, 1 mM EDTA, 0.025 % ascorbic acid, radioligands, and appropriate drugs. […] Nonspecific binding was determined in the presence of 10 μM R-N^6 -phenyl-2-propyladenosine (R-PIA). […] Radioactivity retained on the filters were counted using a Beckman LS6800 scintillation counter (Beckman Instruments, Palo Alto, Calif.). […]

A3 adenosine receptor [3] = biological target: T1, A3 adenosine receptor; conditions: transiently transfected COS-7 cell membranes
Description: The entire coding region of the A3 cDNA insert from R226 was excised from pGem226 and subcloned into either the HindIII/XbaI sites of an RC-RSV expression vector (Invitrogene, San Diego, Calif.) or the HindIII/SmaI sites of pBC12BI (Cullen, 1987, Meth. Enzym. 152: 684-704). The resulting plasmids were called Rc-RSV226 and pBC226 respectively. For transient expression in COS-7 cells, pBC226 plasmid DNA was prepared in large-scale through one cycle of CsCl gradient ultracentrifugation and 45 μg pBC226 DNA were transfected into each 150mm dish of COS-7 cells according to the method of Chen and Okayama (1987, Molec. Cell Biol. 7: 2745-2752). […]
Cell membranes were prepared as follows. […] The protein concentration was measured according to the method of Lowry et al. (1954, J. Biol. Chem. 207: 1-XXX) using bovine serum albumin as a standard.
Radioligand binding assays were carried out in duplicate in 500 μl of a solution containing (at final concentrations) 50 mM Tris-HCl (pH 7.4), 5 mM MgCl2, 1 mM EDTA, 0.025 % ascorbic acid, radioligands, and appropriate drugs. […] Nonspecific binding was determined in the presence of 10 μM R-N^6 -phenyl-2-propyladenosine (R-PIA). […]

## CCNC(=O)[C@H]1O[C@@H](n2cnc3c(N)ncnc32)[C@H](O)[C@@H]1O [NECA, N-ethyladenosine-5'-uronic acid]
A3 adenosine receptor [1]
  inhibitory effect of R-PIA and NECA on forskolin-stimulated cAMP production after pertussis toxin pretreatment: almost completely abolished
A3 adenosine receptor [1]; 1 μM forskolin, 100 nM agonist
  inhibition of forskolin-stimulated cAMP accumulation: 20-50%
A3 adenosine receptor [1]; of control values
  maximum inhibition of cAMP production: 40-50%
A3 adenosine receptor [2]
  pharmacological profile of inhibition of [125I]APNEA binding: R-PIA=NECA>S-PIA>adenosine>ATP=ADP
A3 adenosine receptor [3]
  radioligand binding: saturable and high affinity radioligand binding
